Laboratory results as given in patent US20040077080A1, “Compositions and methods for induction of proteins involved in xenobiotic metabolism” (priority 2000, published 2004).

System: MDR1 P-glycoprotein mRNA
Assay: Northern blot of MDR1 P-glycoprotein expression (Example VI)
Details: rifampicin 10 micromoles per liter, 48 hours

MDR1 P-glycoprotein expression in Caco-PXR stable cells (in words): MDR1 P-glycoprotein activation
Compound: CO[C@H]1/C=C/O[C@@]2(C)Oc3c(C)c(O)c4c(O)c(c(/C=N/N5CCN(C)CC5)c(O)c4c3C2=O)NC(=O)/C(C)=C\C=C\[C@H](C)[C@H](O)[C@@H](C)[C@@H](O)[C@@H](C)[C@H](OC(C)=O)[C@@H]1C [rifampicin]
